Reference: US11173162B2, “Bicyclic heterocycles as FGFR4 inhibitors” (Incyte Corporation, priority 2015, dated 2021)

System: FGFR3 enzyme
Assay: FGFR Enzymatic Assay (FRET peptide phosphorylation), FGFR3
Type: biochemical
Description: The inhibitor potency of the exemplified compounds was measured in an enzyme assay that measures peptide phosphorylation using FRET measurements to detect product formation. Inhibitors were serially diluted in DMSO and a volume of 0.5 μL was transferred to the wells of a 384-well plate.
GraphPad prism3 was used to analyze the data.

## CCN1C(=O)N(c2c(F)c(OC)cc(OC)c2F)Cc2cnc(-c3ccc(C(=O)NC)nc3)cc21 [Example 24, 5-(3-(2,6-difluoro-3,5-dimethoxyphenyl)-1-ethyl-2-oxo-1,2,3,4-tetrahydropyrido[4,3-d]pyrimidin-7-yl)-N-methylpicolinamide]
  FGFR1/FGFR3: >5
